Experimental data taken from PubChem BioAssay AID2129 (The Scripps Research Institute Molecular Screening Center, 2009).
The list shows a part of the results, in another mix than the full data. Calls of active or inactive are those of the source.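 How the source made its calls: active means inhibition above the mean of all tested compounds plus 3 SD, cutoff set per campaign (cut at about 30% in these data); inactive means the rest.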

Sequences of proteins named here, by UniProt entry; tags and fusion partners are left off.
UniProt Q07817, whole entry, looked up: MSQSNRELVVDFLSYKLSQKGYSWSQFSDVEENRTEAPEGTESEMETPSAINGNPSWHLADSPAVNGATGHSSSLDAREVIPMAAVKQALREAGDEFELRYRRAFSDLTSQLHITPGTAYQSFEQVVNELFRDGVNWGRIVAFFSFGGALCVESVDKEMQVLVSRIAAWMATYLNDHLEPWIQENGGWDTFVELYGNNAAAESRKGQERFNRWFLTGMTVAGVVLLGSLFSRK

target: Bcl-2-like protein 1 (Homo sapiens) (UniProt Q07817); experiment: Bcl-xL/Bim BH3 interaction blockers – biochemical, fluorescence polarization, HTS, primary screen (AID 2129); conditions: GST-Bcl-xL / FITC-Bim BH3 peptide fluorescence polarization; at 10.9 µM; active compounds read high;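 further: 0% = DMSO wells and 100% = unlabeled Bim-BH3 peptide competitor; inhibitors lower millipolarization by displacing the labeled peptide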

Row | Structure (SMILES) | inhibition
1 | Cc1nn(-c2ccccc2)c2c1P(=O)(N1CCOCC1)N(C)C(c1ccccc1)=N2 (centres undefined) | inactive: 0.18%
2 | Cc1ccc(C(=O)OC2CN3CCC2CC3)cc1 (centres undefined) | inactive: 2.83%
3 | CC1CCC(C(C)C)C(OP(=O)(Nc2ccccn2)c2ccccc2)C1 (centres undefined) | inactive: 3.07%
4 | O=C(/C=C/c1ccccc1)OC1CN2CCC1CC2 (centres undefined) | inactive: -4.96%
5 | CN(C)C1(CNC(=O)c2ccc(S(C)(=O)=O)cc2)CCCCC1 | inactive: 4.62%
6 | O=P1(Nc2ncccn2)COc2ccccc2OC1 | inactive: 0.55%
7 | NS(=O)(=O)c1cccc(NC(=O)COC(=O)C(O)(c2ccccc2)c2ccccc2)c1 | inactive: 1.38%
8 | O=P1(Nc2ccc(Br)cn2)COc2ccccc2OC1 | inactive: 5.34%
9 | Cc1ccc(OCC(=O)OC2CN3CCC2CC3)cc1 (centres undefined) | inactive: 4.31%
10 | O=[As](O)(c1cccs1)c1cccs1 | inactive: 2.49%
11 | Nc1cccc([As](=O)(O)c2ccccc2)c1 | inactive: 3%
12 | CN(CCCl)Cc1cc(Cl)c(NC2=NCCN2)c(Cl)c1 | inactive: 9.76%
13 | CCOP(=O)(Nc1ccc(C)cn1)OCC | inactive: 2.16%
14 | CCC1=CC2Cc3nc4ccc(Cl)cc4c(N)c3C(C1)C2 (centres undefined) | inactive: 8.04%
15 | O=P1(Nc2ccccn2)COc2ccccc2OC1 | inactive: 0.02%
16 | CCOP(=O)(NC(=NC(C)c1ccccc1)NC(C)c1ccccc1)OCC (centres undefined) | inactive: 0.75%
17 | Clc1n[nH]nc1-c1nn[nH][15n]1 | inactive: 11.2%
18 | CC(C)(C)C(=O)NC(Sc1ncccn1)C(Cl)(Cl)Cl (centres undefined) | inactive: 3.78%
19 | COc1ccccc1CNC(=O)COC(=O)C(O)(c1ccccc1)c1ccccc1 | inactive: 0.84%
20 | O=[As](O)(c1ccccc1Br)c1ccccc1Br | inactive: -1.81%
21 | CC1(CBr)Cn2c(nc3ccccc3c2=O)S1 (centres undefined) | inactive: 4.27%
22 | CN(C(=O)Cc1ccc(Cl)c(Cl)c1)[C@@H]1CCCC[C@H]1N1CCCC1 | inactive: 8.14%
23 | CC(C)/C=N\N=C(\N)N[N+](=O)[O-] | inactive: 3.56%
24 | COc1cc(C(=O)NCC2(N3CCOCC3)CCCCC2)cc(Cl)c1OC(C)C | inactive: 0.13%
25 | O=[As](O)(O)c1cccnc1 | inactive: 0.88%
26 | CS(=O)(=O)c1ccc(Cl)c(NC(=O)COC(=O)C(O)(c2ccccc2)c2ccccc2)c1 | inactive: 2.8%
27 | O=C(OC1CN2CCC1CC2)c1ccc(Cl)cc1 (centres undefined) | inactive: -0.31%
28 | O=[As](O)(c1cccc(O)c1)c1cccc(O)c1 | inactive: 8.76%
29 | Cc1cccc(OCC(=O)OC2CN3CCC2CC3)c1 (centres undefined) | inactive: 9.22%
